# The list is not random: actives were taken first. Their share in the collection is about 1.2%.
# miR122 inh – miR-122 Renilla sensor signal increase in Huh7, primary screen, miR-122 inhibitor project, cell-based, single point, plate reader | Huh7 miR-122 Renilla luciferase sensor, 48 h; neutral wells = 0, positive control = 100 | activation (reporter increase), % at 12.5 µM | actives 0.3% (n = 340,000);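 active = mean replicate activation score at least 90 and every replicate individually at or above 90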;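 note: higher luciferase means less miR-122 activity so hits act as miR-122 inhibitors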
# Statin myotox sup – suppressors of statin myotoxicity in C2C12 myotubes, primary screen, cell-based, single point, plate reader | rescue of ATP level, % at 7.49 µM | C2C12 myotubes + simvastatin, ATP luminescence, 48 h; scaled: DMSO 0, geranylgeraniol control 100 | actives 0.78% (n = 330,000);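 active = mean ATP rescue above about 67%, or every replicate alone reaching that limit, limit read from the data, passing the limit was not always enough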;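 note: myotubes were challenged with 10 µM simvastatin during compound exposure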
# N-glyco inh – increase of ERlucT glycosylation luciferase signal, primary screen, N-linked glycosylation inhibitor project, D54 ERlucT cells, luminescence, set 2. actives 0.23% (n = 360,000). AID 588692, 2011. reporter increase, % at 12.5 µM. D54 ERlucT glycosylation luciferase reporter, 24 h; percent of 100 nM tunicamycin response;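 active = mean luciferase reporter signal, scaled so untreated is 0 and the glycosylation-blocking control 100, at or above a set limit in every replicate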;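 note: luciferase carries N-glycosylation sites so blocking glycosylation raises the light; 0% = median of neutral control wells and 100% = median of 100 nM tunicamycin wells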
# Cneo AK release – Cryptococcus neoformans cell lysis inducers, primary screen, AK release luminescence, single concentration. C. neoformans lysis, adenylate kinase release luminescence, 4 h; normalised: neutral wells 0, clomiphene wells 100. lysis activity, % at 15 µM. actives 0.2% (n = 360,000);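 active = mean lysis activity across replicates of at least 80%, whatever share of replicates individually reach that level; inactive = mean lysis activity below 80%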
#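 Signal: Adenylate kinase release luminescence | Assay system: Log-phase Cryptococcus neoformans yeast cells | Input: Cells at 5 × 10^6 per mL | Buffer or medium: Fresh YPD growth medium | Compound: Single dose | Schedule: Static 4 h at 37 °C with compound, 1 h detection | Controls: Clomiphene | Read-out: Luminescence rise reflecting yeast cell lysis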
# UUG fidelity – modulators of start codon recognition fidelity in yeast; AID 602363; activity score, % at 18.7 µM; S. cerevisiae UUG-firefly luciferase reporter, luminescence/redox ratio; 0.13% of 350,000 active;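 active = replicate mean at a twofold rise or more, about +100% in these data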;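 note: firefly luciferase made from a UUG start codon reports start codon fidelity; reporter light over untreated wells divided by growth signal over untreated wells; some hits fall short of that in this replicate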
# The depositor's hits bear a star; nt = no result; ! = a repeat was not active; [ ] = remark or other dose.
# Codes – A = miR122 inh; B = Statin myotox sup; C = N-glyco inh; D = Cneo AK release; E = UUG fidelity
1) Nc1ccccc1C(O)(Cc1ccccc1)c1ccccc1 (stereo not drawn)
  A: 3.6	B: -6.0	C: -3.0	D: -0.8	E: -4.4

2) Cc1cc(N2CCN(c3ccc([N+](=O)[O-])c4cccnc34)CC2)c2ccccc2n1
  A: nt	B: nt	C: 104.5*	D: nt	E: nt

3) CN(C)C(CNC(=O)c1cc2ccccc2o1)c1ccco1 (stereo not drawn)
  A: 11.4	B: 1.4	C: -2.5	D: -0.7	E: -7.5

4) CC(C)CC#Cc1ccc2c(c1)O[C@H](CN(C)C(=O)C1CCC1)[C@@H](C)CN([C@@H](C)CO)S2(=O)=O
  A: 19.2[16.7 µM]	B: -16.3	C: nt	D: 108.7*	E: 36.7

5) C[C@@H]1CN([C@@H](C)CO)S(=O)(=O)c2ccc(-c3ccccc3)cc2O[C@H]1CN(C)C(=O)C1CCCCC1
  A: 43.9[16.7 µM]	B: -18.2	C: nt	D: 111.7*	E: 33.0

6) CC(C)CC#Cc1ccc2c(c1)O[C@H](CN(C)C(=O)Nc1ccccc1F)[C@@H](C)CN([C@@H](C)CO)S2(=O)=O
  A: 107.2*[16.7 µM]	B: -14.8	C: nt	D: 2.6	E: 21.3

7) CC(C)CC#Cc1ccc2c(c1)O[C@@H](CN(C)C(=O)C1CCC1)[C@@H](C)CN([C@H](C)CO)S2(=O)=O
  A: 157.3*[16.7 µM]	B: 5.5	C: nt	D: 100.0*	E: 48.0

8) COc1ccc(NC(=O)Nc2ccc3c(c2)CC(=O)N([C@@H](C)CO)C[C@@H](C)[C@@H](CN(C)S(=O)(=O)c2ccccc2)O3)cc1
  A: -7.6[16.7 µM]	B: -15.4	C: nt	D: nt	E: nt

9) C[C@@H]1CN([C@H](C)CO)C(=O)c2cc(N(C)C)ccc2O[C@@H]1CN(C)Cc1ccc(-c2ccccc2)cc1
  A: -0.2[16.7 µM]	B: 17.6	C: nt	D: 2.2	E: -11.7

10) CN(C)C(=O)C[C@@H]1CC[C@H](NC(=O)NC2CCCCC2)[C@H](CO)O1
  A: 9.5[16.7 µM]	B: 4.3	C: nt	D: 50.7	E: -13.2

11) CCCNC(=O)N(C)C[C@@H]1Oc2cc(C3=CCCCC3)ccc2S(=O)(=O)N([C@@H](C)CO)C[C@@H]1C
  A: 8.8[16.7 µM]	B: 94.8*	C: nt	D: -1.6	E: 0.5

12) C/C=C/c1ccc2c(c1)O[C@@H](CN(C)C(=O)NC1CCCCC1)[C@@H](C)CN([C@@H](C)CO)S2(=O)=O
  A: -15.0[16.7 µM]	B: 110.7*	C: nt	D: 4.7	E: 11.2

13) C[C@H]1CN([C@@H](C)CO)S(=O)(=O)c2ccc(-c3ccc(C(=O)N(C)C)cc3)cc2O[C@H]1CN(C)C(=O)Cc1ccccn1
  A: 3.7[16.7 µM]	B: 15.7	C: nt	D: 3.4	E: 3.3

14) C[C@@H]1CN([C@H](C)CO)S(=O)(=O)c2ccc(-c3ccc(C(=O)N(C)C)cc3)cc2O[C@H]1CN(C)C(=O)Cc1ccccn1
  A: -2.9	B: 2.9	C: 1.1	D: 93.2*!	E: -11.7

15) CNC(=O)C[C@H]1CC[C@@H]2[C@H](COc3ccc(NC(=O)c4cccc(OC)c4)cc3C(=O)N2C)O1
  A: -83.3[16.7 µM]	B: 18.7	C: nt	D: 0.8	E: 29.7

# Looked up above.
# Entry for `CC(C)CC#Cc1ccc2c(c1)O[C@H](CN(C)C(=O)C1CCC1)[C@@H](C)CN([C@@H](C)CO)S2(=O)=O` under Statin myotox sup: -16.3
# Entry for `C[C@@H]1CN([C@@H](C)CO)S(=O)(=O)c2ccc(-c3ccccc3)cc2O[C@H]1CN(C)C(=O)C1CCCCC1` under UUG fidelity: 33.0

# The results go on:
# Codes – A = miR122 inh; B = Statin myotox sup; C = N-glyco inh; D = Cneo AK release; E = UUG fidelity
16) O=C(CCc1ccc(S(=O)(=O)NCCc2ccccc2)cc1)NCc1ccc2c(c1)OCO2
  A: 196.0*	B: 1.1	C: -5.3	D: 5.2	E: -17.3

17) CCOCC(=O)NCc1ccc2c(c1)OCO2
  A: -9.1	B: 76.1*	C: 0.2	D: 1.7	E: -7.9

18) O=C(CCc1ccc(S(=O)(=O)NCc2ccccc2)cc1)NCc1ccc2c(c1)OCO2
  A: 7.4	B: 31.3	C: -4.7	D: 1.3	E: -3.0

19) Cc1cccc(S(=O)(=O)N2[C@@H]3c4cccc(=O)n4C[C@H]2[C@H](CO)[C@H]3C(=O)N(C)C)c1
  A: nt	B: -12.4	C: nt	D: 3.2	E: nt

20) O=C(C[C@H]1CC[C@H]2[C@@H](COC[C@H](O)CN2Cc2ccccc2)O1)N1CCOCC1
  A: -4.8[16.7 µM]	B: 10.4	C: nt	D: -1.1	E: nt

21) Fc1ccccc1CSc1nnc(-c2cccnc2)o1
  A: nt	B: nt	C: -4.9	D: nt	E: nt

22) Cc1ccc(C)c(CSc2nnc(-c3cccnc3)o2)c1
  A: 355.7*	B: 2.8	C: -0.4	D: -6.6	E: -8.6

23) CN1CCN(C2=Cc3ccccc3Sc3cc(F)ccc32)CC1
  A: -1.6	B: 110.3*	C: -3.3	D: 6.4	E: 35.2

24) CN1CCN(C2=Cc3ccc(Cl)cc3Sc3ccc(F)cc32)CC1
  A: -7.2	B: nt	C: -2.9	D: 8.9	E: -6.5

25) COc1ccc(NC(=O)N(C)C[C@@H]2Oc3ccc(NC(=O)Nc4ccc(F)cc4)cc3CC(=O)N([C@@H](C)CO)C[C@H]2C)cc1
  A: -2.5[16.7 µM]	B: -10.5	C: nt	D: -1.8	E: 24.1

26) O=C(CN1C(=O)/C(=C\c2ccco2)SC1=S)Nc1ccc(O)cc1C(=O)O
  A: -1.7	B: 96.1*	C: 3.4	D: 4.9	E: -10.5

# Arranged by value in miR122 inh (high to low): 3 from the list above.
no. | SMILES | miR122 inh | N-glyco inh | UUG fidelity
22 | Cc1ccc(C)c(CSc2nnc(-c3cccnc3)o2)c1 | 355.7* | -0.4 | -8.6
24 | CN1CCN(C2=Cc3ccc(Cl)cc3Sc3ccc(F)cc32)CC1 | -7.2 | -2.9 | -6.5
17 | CCOCC(=O)NCc1ccc2c(c1)OCO2 | -9.1 | 0.2 | -7.9

# Screens as filed in PubChem BioAssay.
